Results reported in article PMC5995905, “Confirmation of high-throughput screening data and novel mechanistic insights into VDR-xenobiotic interactions by orthogonal assays” (Scientific Reports, 2018).
Counter-ions that a name gives are not always drawn.

Target: T1, VDR:RXR, VDR:SRC-1 and VDR:NCoR interactions (Homo sapiens, UniProt P11473)
T1 sequence (P11473 1-427): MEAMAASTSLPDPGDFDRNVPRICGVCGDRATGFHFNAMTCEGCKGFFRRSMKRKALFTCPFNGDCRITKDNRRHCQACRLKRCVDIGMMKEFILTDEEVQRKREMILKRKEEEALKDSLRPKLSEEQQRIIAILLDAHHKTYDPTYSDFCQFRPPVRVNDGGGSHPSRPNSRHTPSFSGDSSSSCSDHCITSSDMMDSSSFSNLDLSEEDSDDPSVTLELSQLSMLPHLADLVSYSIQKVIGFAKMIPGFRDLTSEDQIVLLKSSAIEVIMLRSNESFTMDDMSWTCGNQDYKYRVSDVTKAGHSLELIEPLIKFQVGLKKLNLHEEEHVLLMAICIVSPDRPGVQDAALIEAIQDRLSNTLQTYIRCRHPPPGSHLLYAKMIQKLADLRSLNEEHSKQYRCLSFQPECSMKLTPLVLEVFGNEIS
Experiment: Mammalian 2-hybrid assay, summary in words of VDR coregulator interactions
Type: cell-based
Details: agonists; with or without co-transfected full length RXR or SRC-1

Compound	pattern of VDR:coregulator interaction facilitated by the ligand
CCc1cc(Cc2cc(CC)cc(C(C)(C)C)c2O)c(O)c(C(C)(C)C)c1 [2,2′-methylenebis(6-tert-butyl-4-ethylphenol)]	Interaction between VDR:RXR only in the absence of full length SRC-1
Cc1cc(Cc2cc(C)cc(C(C)(C)C)c2O)c(O)c(C(C)(C)C)c1 [2,2′-methylenebis(6-tert-butyl-4-methylphenol)]	Interaction between VDR:RXR and VDR:SRC-1 both in the presence and absence of co-transfected full length RXR and SRC-1
O=S(=O)(O)c1ccc2ccc(S(=O)(=O)O)cc2c1 [2,7 Naphthalene disulfonic acid]	did not facilitate VDR:RXR or VDR:SRC-1 interactions under any condition
Cc1cc(=O)oc2cc(N(C)C)ccc12 [7-(Dimethylamino)-4-methylcoumarin]	did not facilitate VDR:RXR or VDR:SRC-1 interactions under any condition
C=C1/C(=C\C=C2/CCC[C@]3(C)[C@@H]([C@H](C)/C=C/[C@@H](O)C4CC4)CC[C@@H]23)C[C@@H](O)C[C@@H]1O [Calcipotriol, reference compound]	Interaction between VDR:RXR and VDR:SRC-1 both in the presence and absence of co-transfected full length RXR and SRC-1
COC(=O)c1nc(Cl)c(Cl)nc1N [Methyl 3-amino-5,6-dichloropyrazine-2-carboxylate]	Interaction between VDR:SRC-1 only in the presence of co-transfected RXR
Nc1nc(N)c2nc(-c3ccccc3)c(N)nc2n1 [Triamterene, reference compound]	Interaction between VDR:RXR and VDR:SRC-1 both in the presence and absence of co-transfected full length RXR and SRC-1

Same assay, conditions: antagonists; with or without co-transfected full length RXR or SRC-1

Compound	pattern of change of 1,25D3 induced VDR:coregulator interaction
CC(C)C[C@H](NC(=O)[C@H](CCc1ccccc1)NC(=O)CN1CCOCC1)C(=O)N[C@@H](Cc1ccccc1)C(=O)N[C@@H](CC(C)C)C(=O)[C@@]1(C)CO1 [Carfizomib, reference compound]	enhanced the interaction between VDR:SRC-1 only in the presence of co-transfected RXR
Cc1cc(O)c2ccccc2c1O [Menadiol, reference compound]	selectively inhibit VDR:RXR interactions only in the absence of full length wild type SRC-1

Target: T2, VDR:NCoR (Homo sapiens, UniProt P11473)
T2 sequence (P11473 1-427): T1 sequence (P11473 1-427)
Experiment: Mammalian 2-hybrid assay, recruitment of corepressor NCoR by VDR, Cos7 cells
Details: not given

Compound	Fold Change (pMNCoR + RXRα)
COc1cccc2c1cc([N+](=O)[O-])c1c(C(=O)O)cc3c(c12)OCO3 [Aristolochic acid]	11.4
[Cl][Cd][Cl] [Cadmium chloride]	0.5
O=C(O)CCCc1ccc(N(CCCl)CCCl)cc1 [Chlorambucil, reference compound]	1
O=C1C(Cl)=C(Cl)C(=O)c2ccccc21 [Dichlone]	1
C[C@@H]1O[C@@H](O[C@@H]2C=C3CC[C@@H]4[C@H](CC[C@]5(C)[C@@H](c6ccc(=O)oc6)CC[C@]45O)[C@@]3(C)CC2)[C@H](O)[C@H](O)[C@H]1O [Proscillaridin, reference compound]	1.6
CN(C)C(=S)SSC(=S)N(C)C [Thiram]	1
Cadmium reference solution	0.8

Same assay, conditions: agonists; +RXR; fold induction compared to DMSO; 9 aminoacridine at 50 μM in Fig 5

Compound	Fold Change (pMNCoR + RXRα) [fold]
Cl.Nc1c2ccccc2nc2ccccc12 [9 Aminoacridine monohydrochloride]	53.1

Same assay, conditions: antagonists; -RXR; normalized to DMSO set to 1; conc. in Fig 6: K dicyanoaurate 6, proscillaridin, aristolochic acid 12, thiram 1 μM

Compound	Fold Change (pMNCoR + EpSG5) [fold]
CC(C)C[C@H](NC(=O)[C@H](CCc1ccccc1)NC(=O)CN1CCOCC1)C(=O)N[C@@H](Cc1ccccc1)C(=O)N[C@@H](CC(C)C)C(=O)[C@@]1(C)CO1 [Carfizomib, reference compound]	1.1
O=C([O-])c1ccccc1-c1c2ccc(=O)cc-2oc2cc([O-])ccc12.[Na+].[Na+] [Fluorescein sodium, reference compound]	1.2
Nc1ccc2cc3ccc(N)cc3nc2c1 [Proflavine hydrochloride]	1.3
C[C@]1(Cn2ccnn2)[C@H](C(=O)O)N2C(=O)C[C@H]2S1(=O)=O [Tazobactam sodium, reference compound]	1.7
